Biological target: Sodium-dependent dopamine transporter (Homo sapiens, UniProt Q01959)
Assay type: cell-based, COS-7

Protein sequences, listed by entry. Tags and fused reporters are not part of them.
UniProt Q01959, whole entry: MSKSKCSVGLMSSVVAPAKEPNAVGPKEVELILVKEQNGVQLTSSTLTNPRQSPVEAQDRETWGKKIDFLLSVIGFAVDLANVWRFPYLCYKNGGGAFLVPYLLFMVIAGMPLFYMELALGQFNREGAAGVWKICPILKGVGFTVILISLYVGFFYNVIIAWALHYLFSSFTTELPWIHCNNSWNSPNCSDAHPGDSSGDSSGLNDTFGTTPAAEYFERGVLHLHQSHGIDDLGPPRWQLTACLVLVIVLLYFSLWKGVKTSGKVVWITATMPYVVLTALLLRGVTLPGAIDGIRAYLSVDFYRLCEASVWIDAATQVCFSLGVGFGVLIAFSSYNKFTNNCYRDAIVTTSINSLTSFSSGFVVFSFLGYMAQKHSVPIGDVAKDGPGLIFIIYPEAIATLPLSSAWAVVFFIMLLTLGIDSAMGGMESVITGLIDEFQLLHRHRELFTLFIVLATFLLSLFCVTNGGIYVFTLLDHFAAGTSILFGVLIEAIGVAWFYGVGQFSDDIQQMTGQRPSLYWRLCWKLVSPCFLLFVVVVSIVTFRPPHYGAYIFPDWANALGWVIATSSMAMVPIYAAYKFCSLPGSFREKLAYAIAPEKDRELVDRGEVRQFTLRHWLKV

Question: CC(N)C1(c2cccc3ccccc23)CCCCC1 (stereo unspecified) was tested. Which IC50 did it give?
Answer: The IC50 was 4 µM.
